## Binding of CDR-mutated scFvs to a peptide of the spike HR2 region

Target peptide (SARS-CoV-2 spike, HR2 region): PDVDLGDISGINAS

Each scFv is VL, a (GGGGS)3 linker, VH, as in the parent Ab-91, and differs from it in the CDRs of the heavy chain only.
VL: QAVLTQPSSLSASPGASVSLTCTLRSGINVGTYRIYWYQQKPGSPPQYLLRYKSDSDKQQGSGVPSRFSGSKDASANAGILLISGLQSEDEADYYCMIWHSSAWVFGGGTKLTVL
VH: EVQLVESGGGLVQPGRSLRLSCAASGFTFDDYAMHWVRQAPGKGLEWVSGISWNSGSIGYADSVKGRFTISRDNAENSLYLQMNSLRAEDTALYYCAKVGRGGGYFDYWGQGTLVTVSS

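The parent was found by panning a naive human phage display library on the peptide. Library AAYL51 holds single substitutions and randomly drawn double and triple substitutions in the CDRs. Affinity was read by AlphaSeq, a pooled yeast mating assay with surface-displayed partners. Binding brings cells together so that they mate, and sequencing counts the barcode pairs among the diploids. Each replicate has its own calibration line, from reference interactions of the BCL2 family. Each pool was mated in three replicate cultures.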

The parent's heavy chain CDRs are GFTFDDYAMH, GISWNSGSIGYADSVK, VGRGGGYFDY; each variant's own CDRs replace them letter for letter. Values are log10 of the apparent Kd in nM; lower means stronger binding. Averages over replicates are reported, and they cover detected replicates only. A pair that was not seen in any replicate is written "no signal"; this usually means weak binding, but a binder can also be missed.

| CDR-H1 | CDR-H2 | CDR-H3 | mean, log10 nM | seen in |
|---|---|---|---|---|
| GRTFDHYAMH | GISWNSGSIGYADSVK | VGRGGQYFDY | no signal | 0/3 |
| GFTFPDYAMH | GISWNSGVIGYADSPK | VGRGGGYFDY | 5.50 | 2/3 |
| GFTFDDYSMH | TISWNSDSIGYADSVK | VGRGGGYFDY | 3.91 | 1/3 |
| GFTFDDYQME | GISWNSGSIGYADSVK | VGRGGGYFDS | no signal | 0/3 |
| GFTFDDYAMH | GITWNSGSIGYADSVK | VMRYGGYFDY | 3.64 | 3/3 |
| GFIFDDYAMH | GISWNSGSIGYADSVV | VGRGGGHFDY | 4.14 | 1/3 |
| GFTFKDYAMH | GISWVSGSIGYADSVK | VGRGGGYFIY | 2.68 | 3/3 |
| GFTFDDYAMH | GISQNMGSIGYADSDK | VGRGGGYFDY | no signal | 0/3 |
| GFTFDDYAMH | GISWNSGPIGYADSVK | VGRGGMYFDY | 5.59 | 1/3 |
| GFTFDDYNMH | GIEWNSGSIGYADSVK | VGYGGGYFDY | 5.15 | 2/3 |
| GFTFDDYAMH | GISSNKHSIGYADSVK | VGRGGGYFDY | no signal | 0/3 |
| GFTFDDYAMH | TISWNSGSIKYADSVK | VGRGGGYFDY | 3.08 | 1/3 |
| GFTHDDYAMH | EISWNSGSIGYADSVK | VGRGGGYPDY | no signal | 0/3 |
| GFTFVVYAMH | GISWNSGSIGYADSVK | YGRGGGYFDY | no signal | 0/3 |
| GFTFDDYAMH | GISWNSGSIGAADSVP | VGKGGGYFDY | no signal | 0/3 |
| GFTFDDYAMH | GISWNSGSIWYALSVK | VGRGGGYFGY | 3.98 | 1/3 |
| GTTFDDYAMH | GISWNMGDIGYADSVK | VGRGGGYFDY | no signal | 0/3 |
| GFTFDDYAMH | GISWNSGSIVYALSVP | VGRGGGYFDY | no signal | 0/3 |
| GFTFDDYACH | GISRNTGSIGYADSVK | VGRGGGYFDY | 4.94 | 1/3 |
| GFTFDDYAMH | GYSWNWGSIGYADSVK | VGRGGGYFDY | 3.94 | 2/3 |
| GFTFDDYANH | GISWNSGSIGYADSVD | VGRGGGYFEY | 3.65 | 1/3 |
| GFTFDVYAMH | GVSWNSGSIGYLDSVK | VGRGGGYFDY | 4.31 | 2/3 |
| GFTFDDYAMH | EISWVSGSIGYADSVS | VGRGGGYFDY | 4.90 | 2/3 |
| GFTFDDYAMH | GISWNSGSLGYADFVK | YGRGGGYFDY | 4.39 | 1/3 |
| GFTFDDYAMH | GISNNSGSIGYAWSVK | VGRTGGYFDY | 3.76 | 1/3 |
| TFTFDDYAMH | GISWNSGSIGYWDSVK | NGRGGGYFDY | 2.59 | 1/3 |
| GFTFDDYHIH | GISWNSQSIGYADSVK | VGRGGGYFDY | no signal | 0/3 |
| GFTFDDYAMH | WISWNSGSIAYADYVK | VGRGGGYFDY | no signal | 0/3 |
| GFTFDDYAPH | GVSWNSGSIGYADSVK | VGRGSGYFDY | no signal | 0/3 |
| KFTFDDYAMH | GISWNSGSIGYADSVH | VGEGGGYFDY | 4.18 | 1/3 |
| GFMFDDYAMA | GISWNSGSIGYADSEK | VGRGGGYFDY | no signal | 0/3 |
| GFTFDKYDMH | GISWNSGSVGYADSVK | VGRGGGYFDY | 1.72 | 3/3 |
| GFTFCDYAMH | YISWNSGSIGYADVVK | VGRGGGYFDY | no signal | 0/3 |
| GFTFDEYAMH | GSSWNSGSIGYADSVK | VGRGFGYFDY | no signal | 0/3 |
| GFTFDDLAMH | GISWGSGSIGYADSVK | VGRGGGYFCY | 4.67 | 2/3 |
| GFTFDDYAMH | GISINSGSIGYADSVK | VKRRGGYFDY | 4.64 | 1/3 |
| TFTFDDYAMC | GISWNSGSIGYADSVK | VGWGGGYFDY | 3.81 | 1/3 |
| GFTFDDYAMH | GISWNSGSIGYADSGK | VGGYGGYFDY | no signal | 0/3 |
| GFHSDIYAMH | GISWNSGSIGYADSVK | VGRGGGYFDY | 3.50 | 1/3 |
| GFTFDDYAMH | GISWNSGYIGYADSVQ | VGRGGGYPDY | no signal | 0/3 |
| GFVFQDYAMH | GISWNVGSIGYADSVK | VGRGGGYFDY | 2.12 | 3/3 |
| GFADDDYAMH | GISWNSGSIGYADSVK | VGRGGGYFDY | 5.27 | 3/3 |
| GFTFDDYAMH | GISDNSGILGYADSVK | VGRGGGYFDY | 4.59 | 2/3 |
| GFTFDDVAMH | GISWNSGSICYADSVK | VGRGGGYWDY | no signal | 0/3 |
| GFTFDDYAMN | GISWNSGSIGYADSVK | VIRGGGYFDT | 5.02 | 3/3 |
| GFTMDDTAMH | GISWNSGSIGYADSVK | VGRGVGYFDY | 4.70 | 3/3 |
| GFTFDDYFMH | GISWNSGSSGYADSVK | VGRGGPYFDY | no signal | 0/3 |
| GFTFDDYAMH | GISWNSGSIGYADSVK | VGRGGGYNIV | 3.88 | 1/3 |
| GFTFDDYAMH | DISWNQGSIGMADSVK | VGRGGGYFDY | no signal | 0/3 |
| GFTFDCYAMH | GISCNSGSIGYDDSVK | VGRGGGYFDY | 4.78 | 2/3 |
| GFTFDHYAWH | GISWNSGSIGQADSVK | VGRGGGYFDY | no signal | 0/3 |
| GFTFDDYAMH | GISWNSGSIGYSDGVK | VGRGGGYFDY | no signal | 0/3 |
| GFTFDDYAMH | GISWNSGQIGYADSVW | VGRGGGYFEY | no signal | 0/3 |
| GFTFDPYAMH | GISWNSGSIGYADAVK | VGRGGGYFDY | no signal | 0/3 |
| GFTFDDYAMH | GISWNSGSIGYEDDVK | VGRGQGYFDY | 3.91 | 1/3 |
| GFMFDDYAMH | GISWNSGSIGYADSVK | VGRGGGVFCY | 2.75 | 3/3 |
| GFRFDDYAMH | GISWNSGSIGCADKVK | VGRGGGYFDY | no signal | 0/3 |
| GFTFDDYAMH | GISWNMGEIGYADSVK | VGRGGGYFDY | 2.79 | 3/3 |
| GFTFDDYAMH | GISWNSGSIGSAMSVK | VGRGGGYSDY | no signal | 0/3 |
| GFTFDPYAMH | GISWNSGSILYADSVQ | VGRGGGYFDY | no signal | 0/3 |
| GFTFDDYAMD | GISWNSGSIGYAKSVK | VGRGGGYFDY | 4.21 | 1/3 |
| GFHFADYAMG | GISWNSGSIGYADSVK | VGRGGGYFDY | 4.75 | 2/3 |

The opening 4 entries, copied out:

CDR-H1	CDR-H2	CDR-H3	mean, log10 nM	seen in
GRTFDHYAMH	GISWNSGSIGYADSVK	VGRGGQYFDY	no signal	0/3
GFTFPDYAMH	GISWNSGVIGYADSPK	VGRGGGYFDY	5.50	2/3
GFTFDDYSMH	TISWNSDSIGYADSVK	VGRGGGYFDY	3.91	1/3
GFTFDDYQME	GISWNSGSIGYADSVK	VGRGGGYFDS	no signal	0/3

Parent in this assay: reference entry 1.86, copy in this library 0.88. Empty control strains, which show no peptide, gave a signal in 21% of pairings with library AAYL51; the median was 4.54 and 95% of these signals were weaker than 3.26. No background was subtracted.

Data: MIT Lincoln Laboratory AlphaSeq set, Engelhart et al. 2022, doi:10.1038/s41597-022-01779-4, as distributed in FLAb.